Source: ChEMBL document CHEMBL4359921, “Discovery of potent 4-aminoquinoline hydrazone inhibitors of NRH:quinoneoxidoreductase-2 (NQO2)” (Eur J Med Chem, 2019)

Molecular target: T1, Ribosyldihydronicotinamide dehydrogenase [quinone] (Homo sapiens, UniProt P16083)
T1 sequence (P16083 whole entry): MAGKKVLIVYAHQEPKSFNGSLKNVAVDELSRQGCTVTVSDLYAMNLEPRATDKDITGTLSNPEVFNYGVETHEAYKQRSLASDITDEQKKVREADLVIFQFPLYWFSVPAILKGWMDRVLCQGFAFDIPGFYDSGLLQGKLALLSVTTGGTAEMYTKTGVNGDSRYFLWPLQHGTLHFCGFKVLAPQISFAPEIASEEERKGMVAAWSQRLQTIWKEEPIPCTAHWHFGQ
Test: Inhibition of recombinant human NQO2 expressed in Escherichia coli BL21 (DE3) using DCPIP as substrate

Compared with `NCCNC(=O)c1cccc2nc(-c3ccc(-c4ccccc4)cc3)ccc12`, `NCCNC(=O)c1cc([N+](=O)[O-])cc2ccc(-c3ccccc3)nc12` is 1.8-fold lower in IC50: 70 nM for the first, 40 nM for the second. The second is the more potent here.

`CCN(C)CCCC(C)Nc1cc(-c2ccccc2)nc2cc(OC)ccc12` (stereo not drawn) gave an IC50 of 550 nM.
